Values quoted from earlier work, collected in patent US20040229295A1, “Activated delivery of biomolecules using electromagnetic energy” (priority 1999, published 2004).

Conditions: thermal denaturation

human serum albumin
total change in free energy for unfolding: 10 kcal/mol
